Measured values as given in patent US9102622B2 (University of Connecticut, priority 2006, dated 2015).

The chains behind the UniProt entries cited, without tags or fusion partners.
UniProt P97612, whole entry: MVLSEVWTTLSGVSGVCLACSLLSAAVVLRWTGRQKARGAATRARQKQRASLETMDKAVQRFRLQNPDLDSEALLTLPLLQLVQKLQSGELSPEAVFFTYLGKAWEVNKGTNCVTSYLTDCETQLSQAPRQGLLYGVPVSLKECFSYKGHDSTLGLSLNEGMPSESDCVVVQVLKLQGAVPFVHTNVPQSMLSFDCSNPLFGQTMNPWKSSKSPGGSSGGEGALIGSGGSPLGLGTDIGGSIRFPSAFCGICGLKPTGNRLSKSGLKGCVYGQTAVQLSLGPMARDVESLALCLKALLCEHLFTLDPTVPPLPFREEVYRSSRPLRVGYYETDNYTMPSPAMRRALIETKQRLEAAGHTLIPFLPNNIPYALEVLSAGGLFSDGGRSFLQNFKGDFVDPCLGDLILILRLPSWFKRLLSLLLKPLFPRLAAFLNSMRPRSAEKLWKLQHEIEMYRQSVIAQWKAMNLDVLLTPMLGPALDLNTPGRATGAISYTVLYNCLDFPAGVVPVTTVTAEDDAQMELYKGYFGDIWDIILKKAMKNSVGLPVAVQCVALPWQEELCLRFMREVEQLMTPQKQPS

Biological target: fatty acid amide hydrolase (FAAH) (Rattus norvegicus (Rat), UniProt P97612)
Assay: FAAH enzyme assay: inhibition of anandamide (AEA) hydrolysis, arachidonic acid quantified by HPLC
Assay type: biochemical
Details: eight-point assay
Method: The resulting supernatant is injected onto the HPLC.

In the case of `O=S(=O)(F)CCCCCCCc1ccc(OCc2ccccc2)cc1` [Compound 13.1, 7-(4-Benzyloxy-phenyl)-heptanesulfonyl fluoride], the IC50 (anandamide hydrolysis by FAAH) is reported as 168 nM and the Ki (calculated with Prizm software) is reported as 39 nM.
